In assay [1] the target is T1, Androgen receptor (Homo sapiens, UniProt P10275).
The target of assay [2] is T1, Androgen receptor. This is another data set of the same source.
The target of assay [3] is T1, Androgen receptor. The source holds these as a separate data set.

Sequences of proteins named here, by UniProt entry; tags and fusion partners are left off. A change or cut given only in a name is not applied to a line headed by its entry.
UniProt P10275: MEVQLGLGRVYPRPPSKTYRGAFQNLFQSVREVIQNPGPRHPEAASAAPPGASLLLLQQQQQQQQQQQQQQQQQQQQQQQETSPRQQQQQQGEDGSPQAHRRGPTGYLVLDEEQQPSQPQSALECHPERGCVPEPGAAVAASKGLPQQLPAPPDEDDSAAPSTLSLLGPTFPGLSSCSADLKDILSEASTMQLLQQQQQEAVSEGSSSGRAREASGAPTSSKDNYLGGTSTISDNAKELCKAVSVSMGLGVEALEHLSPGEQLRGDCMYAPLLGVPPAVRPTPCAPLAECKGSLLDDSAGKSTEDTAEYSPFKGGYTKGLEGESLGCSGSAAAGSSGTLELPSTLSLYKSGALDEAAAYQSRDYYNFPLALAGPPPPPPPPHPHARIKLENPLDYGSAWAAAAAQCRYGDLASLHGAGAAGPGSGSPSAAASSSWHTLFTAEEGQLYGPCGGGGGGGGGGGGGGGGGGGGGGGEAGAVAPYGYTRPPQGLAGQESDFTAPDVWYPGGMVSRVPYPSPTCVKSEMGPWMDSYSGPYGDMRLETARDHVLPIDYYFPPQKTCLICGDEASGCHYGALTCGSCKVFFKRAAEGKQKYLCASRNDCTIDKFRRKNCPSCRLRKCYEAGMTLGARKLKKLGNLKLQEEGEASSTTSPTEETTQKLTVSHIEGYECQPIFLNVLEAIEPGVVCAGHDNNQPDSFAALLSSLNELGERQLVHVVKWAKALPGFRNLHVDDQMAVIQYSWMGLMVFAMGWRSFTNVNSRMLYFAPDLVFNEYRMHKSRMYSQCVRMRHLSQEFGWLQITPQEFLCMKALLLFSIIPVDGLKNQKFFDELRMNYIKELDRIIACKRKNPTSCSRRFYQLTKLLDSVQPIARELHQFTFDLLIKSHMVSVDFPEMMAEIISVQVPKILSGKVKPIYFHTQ

pEC50, pIC50, pKi: −log10 of the molar value.

What is called pIC50 is −log10 of the IC50, conventionally taken in molar units. High values mean a small IC50, low ones a large IC50. The pKi is −log10 of the Ki, conventionally taken in molar units. As usually defined, the pEC50 is the EC50 on a negative log10 scale, so that one unit is a factor of ten.

The compound `CCCCN(CCCC)c1ccc2[nH]c(=O)cc(C(F)(F)F)c2c1` had a pIC50 against Androgen receptor [1] of 7.53.

In turn, `CN(C)c1ccc2[nH]c(=O)cc(C(F)(F)F)c2c1` had a pIC50 against Androgen receptor [1] of 7.47. This compound gave a pKi on Androgen receptor [2] of 6.82. This compound gave a pEC50 on Androgen receptor [3] of under 5.00.

On Androgen receptor [1], `CCN(c1ccc2nc(O)cc(C(F)(F)F)c2c1)C(C)C` had a pIC50 of under 5.00. The pEC50 at Androgen receptor [3] was 8.66.

At Androgen receptor [1], `CC(C)Nc1ccc2[nH]c(=O)cc(C(F)(F)F)c2c1` gave a pIC50 of 7.78. This compound gave a pKi at Androgen receptor [2] of 7.24. The negative logarithm of the EC50 (pEC50) at Androgen receptor [3] was 6.97.

Compound `Nc1ccc2[nH]c(=O)cc(C(F)(F)F)c2c1` showed a pIC50 on Androgen receptor [1] of 7.59. The same compound had a pKi on Androgen receptor [2] of under 5.00. For the same compound, the pEC50 at Androgen receptor [3] is under 5.00.

On Androgen receptor [1], `CCCNc1ccc2[nH]c(=O)cc(C(F)(F)F)c2c1` gave a pIC50 of 7.56.

(Values after ChEMBL document CHEMBL1137374.)
